In experiment [1] the target is Glycogen synthase kinase-3 (Sus scrofa, UniProt B2LUN4+I6LNT8). In words: Inhibition of porcine brain GSK-3alpha/beta incubated for 30 mins in presence of [33p]-gamma ATP by scintillation counter analysis.
The target in experiment [2] is T1, Glycogen synthase kinase-3 beta (Homo sapiens, UniProt P49841). Briefly: Inhibition of GSK3beta (unknown origin) assessed as decrease in tau phosphorylation at Ser214 residue incubated for 30 mins by Western blot assay.
Experiment [3] has as its target T1, Glycogen synthase kinase-3 beta. In words: Inhibition of GSK3beta (unknown origin) in presence of ATP.
Experiment [4] can be described thus: Inhibition of AMPK (unknown origin) in presence of ATP. Set-up: species or system Homo sapiens.
The target in experiment [5] is Cyclin-dependent kinase 4/cyclin D1 (Homo sapiens, UniProt P11802). Briefly: Inhibition of CDK4/cyclin D1 (unknown origin). The class given is protein-complex assay.

The chains behind the UniProt entries cited, without tags or fusion partners. Where a name states a change or a piece, a line headed by the entry shows the natural chain unless it says otherwise.
UniProt B2LUN4: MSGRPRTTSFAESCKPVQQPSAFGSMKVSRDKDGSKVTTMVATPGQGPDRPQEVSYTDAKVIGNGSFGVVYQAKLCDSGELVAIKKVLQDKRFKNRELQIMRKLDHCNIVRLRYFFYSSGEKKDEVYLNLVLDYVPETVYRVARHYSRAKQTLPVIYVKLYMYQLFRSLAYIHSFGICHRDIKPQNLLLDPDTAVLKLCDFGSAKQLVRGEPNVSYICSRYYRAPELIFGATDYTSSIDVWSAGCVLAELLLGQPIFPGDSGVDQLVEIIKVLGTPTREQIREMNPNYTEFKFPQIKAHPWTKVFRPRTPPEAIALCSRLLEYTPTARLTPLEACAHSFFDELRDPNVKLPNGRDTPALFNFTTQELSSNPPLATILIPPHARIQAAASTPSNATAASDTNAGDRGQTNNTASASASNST
UniProt I6LNT8: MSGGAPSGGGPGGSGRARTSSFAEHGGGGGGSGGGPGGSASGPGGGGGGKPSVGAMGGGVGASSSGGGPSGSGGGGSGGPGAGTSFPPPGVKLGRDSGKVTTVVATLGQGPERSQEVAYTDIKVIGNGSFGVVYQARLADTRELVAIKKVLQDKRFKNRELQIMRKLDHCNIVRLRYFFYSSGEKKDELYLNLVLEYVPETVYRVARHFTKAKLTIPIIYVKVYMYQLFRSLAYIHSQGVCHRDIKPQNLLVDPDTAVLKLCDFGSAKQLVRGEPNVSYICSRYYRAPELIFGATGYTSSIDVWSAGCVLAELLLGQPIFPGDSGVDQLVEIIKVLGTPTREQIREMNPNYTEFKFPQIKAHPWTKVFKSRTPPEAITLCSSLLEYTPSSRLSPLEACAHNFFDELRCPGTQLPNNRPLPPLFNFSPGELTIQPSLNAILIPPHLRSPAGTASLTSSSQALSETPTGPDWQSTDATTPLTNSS
UniProt P49841: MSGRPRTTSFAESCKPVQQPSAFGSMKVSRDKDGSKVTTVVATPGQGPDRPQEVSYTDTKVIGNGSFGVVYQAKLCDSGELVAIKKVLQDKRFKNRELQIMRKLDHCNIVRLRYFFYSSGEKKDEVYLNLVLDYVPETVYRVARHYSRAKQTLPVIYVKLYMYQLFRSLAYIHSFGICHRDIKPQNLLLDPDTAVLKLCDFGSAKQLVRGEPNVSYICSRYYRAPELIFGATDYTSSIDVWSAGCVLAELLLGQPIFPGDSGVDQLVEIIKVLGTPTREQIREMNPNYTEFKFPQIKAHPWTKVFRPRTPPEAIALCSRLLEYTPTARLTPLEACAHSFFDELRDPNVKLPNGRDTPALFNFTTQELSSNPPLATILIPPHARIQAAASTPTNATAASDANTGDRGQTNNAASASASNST
UniProt P11802: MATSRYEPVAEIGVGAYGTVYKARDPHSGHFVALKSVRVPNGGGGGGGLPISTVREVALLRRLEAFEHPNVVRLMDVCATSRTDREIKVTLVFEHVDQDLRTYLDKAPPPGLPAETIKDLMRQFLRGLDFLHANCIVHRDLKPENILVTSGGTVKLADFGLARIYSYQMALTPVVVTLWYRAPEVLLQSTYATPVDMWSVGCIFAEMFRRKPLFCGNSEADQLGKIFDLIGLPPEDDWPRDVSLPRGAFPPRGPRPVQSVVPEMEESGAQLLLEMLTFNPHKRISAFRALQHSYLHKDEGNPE

pIC50: −log10 of the molar value.

Take `O=C1Nc2ccccc2/C1=C1/Nc2ccccc2C1=O` [INDIRUBIN]: the IC50 in experiment [1] turned out to be 1000 nM.
Take `O=C1Nc2ccccc2/C1=C1/Nc2ccccc2/C1=N\O`: the figures for the pIC50 in experiment [2], in experiment [3] and in experiment [4] were 7.66, 6.72 and 6.66, respectively. Besides, the concentration for half-maximal inhibition (IC50) in experiment [1] was 22 nM.
`O=C1Nc2ccc(S(=O)(=O)O)cc2/C1=C1/Nc2ccccc2C1=O` showed a pIC50 in experiment [5] of 6.52.
